Test results as given in patent US9499466B2, “Diene-based carboxylate anion and salt thereof, and polymerizable or curable composition thereof” (NIPPON SHOKUBAI CO., LTD., priority 2010, dated 2016).

Test: Solubility test (film-forming method)
Description: Each compound was applied on a glass plate and the glass plate was leaned against the wall. Each solvent shown in Table 5 was dropped (5 to 6 drops) on the glass plate with a pasteur pipette. The glass plate was visually observed after the dropped solvent was dried, the surface was optionally rubbed with a spatula, and the solubility (film-forming method) was evaluated according to the criteria shown in Table 4.

Substance | Solubility (film-forming method) THF (THF) | Solubility (film-forming method) Toluene (Toluene) | Solubility (film-forming method) Water (solvent dropped on film on glass plate, Water)
Magnesium methacrylate [Mg(MAA)2, reference compound] | X-Δ |  | 
Zinc methacrylate [Zn(MAA)2, reference compound] |  | X-Δ | X-Δ
